Molecular target: LecB (Pseudomonas aeruginosa, UniProt Q9HYN5)
Assay: Binding thermodynamics to LecB by isothermal calorimetry
Conditions: average of two measurements

The chains behind the UniProt entries cited, without tags or fusion partners.
UniProt Q9HYN5, entry or part of it: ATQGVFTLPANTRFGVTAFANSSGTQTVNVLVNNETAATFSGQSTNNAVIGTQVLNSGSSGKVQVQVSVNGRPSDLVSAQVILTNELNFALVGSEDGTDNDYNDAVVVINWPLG

CO[C@H]1O[C@H](CO)[C@@H](O)[C@H](O)[C@@H]1O [Me-α-D-Man, methyl α-D-mannopyranoside]
Ka: 15150 M⁻¹
